Measurements: patent US20040265846A1, “Adrenergic receptors” (DUKE UNIVERSITY, priority 2002, published 2004)

Tested on: SNP G247R and wild type α1aAR
Experiment: NE-induced receptor internalization (surface HA-tagged receptor)
Settings: NE 10 μM for 1 h, low-expressing cells

NC[C@H](O)c1ccc(O)c(O)c1 [NE, (−)-norepinephrine]
receptor internalization, G247R vs WT: at a similar extent
